Test results reported in US20100029620A1, “SUBSTITUTED TRIAZOLINE, TETRAZOLONE AND IMIDAZOLONE DERIVATIVES FOR USE AS A MEDICINE” (JANSSEN PHARMACEUTICA N.V., priority 2004, published 2010).

Amino acid sequences for entries named in this document (tags omitted).
UniProt P18825, whole entry: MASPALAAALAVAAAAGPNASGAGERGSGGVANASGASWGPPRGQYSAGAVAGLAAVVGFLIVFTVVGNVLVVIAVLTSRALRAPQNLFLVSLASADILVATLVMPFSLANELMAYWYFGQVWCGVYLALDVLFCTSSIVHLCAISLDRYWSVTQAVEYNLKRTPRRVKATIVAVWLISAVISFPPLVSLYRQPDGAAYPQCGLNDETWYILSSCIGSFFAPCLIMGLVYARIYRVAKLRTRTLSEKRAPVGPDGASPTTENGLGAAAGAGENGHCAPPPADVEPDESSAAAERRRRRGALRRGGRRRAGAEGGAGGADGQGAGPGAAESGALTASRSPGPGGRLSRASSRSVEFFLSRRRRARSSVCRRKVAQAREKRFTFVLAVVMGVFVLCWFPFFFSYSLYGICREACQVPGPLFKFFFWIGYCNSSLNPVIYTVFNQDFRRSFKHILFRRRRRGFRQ
UniProt P08913, whole entry: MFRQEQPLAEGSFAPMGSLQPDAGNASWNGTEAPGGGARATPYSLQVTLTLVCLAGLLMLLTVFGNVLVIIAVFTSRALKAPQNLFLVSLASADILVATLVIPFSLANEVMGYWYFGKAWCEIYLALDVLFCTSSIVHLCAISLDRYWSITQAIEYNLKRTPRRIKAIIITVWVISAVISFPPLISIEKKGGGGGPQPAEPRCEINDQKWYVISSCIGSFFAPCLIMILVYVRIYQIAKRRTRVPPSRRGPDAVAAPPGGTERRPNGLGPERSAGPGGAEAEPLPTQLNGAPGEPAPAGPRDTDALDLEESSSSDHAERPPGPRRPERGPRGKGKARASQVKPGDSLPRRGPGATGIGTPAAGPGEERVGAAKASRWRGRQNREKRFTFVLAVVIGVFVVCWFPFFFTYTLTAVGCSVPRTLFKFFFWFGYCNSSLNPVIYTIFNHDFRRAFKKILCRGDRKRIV
UniProt P18089, whole entry: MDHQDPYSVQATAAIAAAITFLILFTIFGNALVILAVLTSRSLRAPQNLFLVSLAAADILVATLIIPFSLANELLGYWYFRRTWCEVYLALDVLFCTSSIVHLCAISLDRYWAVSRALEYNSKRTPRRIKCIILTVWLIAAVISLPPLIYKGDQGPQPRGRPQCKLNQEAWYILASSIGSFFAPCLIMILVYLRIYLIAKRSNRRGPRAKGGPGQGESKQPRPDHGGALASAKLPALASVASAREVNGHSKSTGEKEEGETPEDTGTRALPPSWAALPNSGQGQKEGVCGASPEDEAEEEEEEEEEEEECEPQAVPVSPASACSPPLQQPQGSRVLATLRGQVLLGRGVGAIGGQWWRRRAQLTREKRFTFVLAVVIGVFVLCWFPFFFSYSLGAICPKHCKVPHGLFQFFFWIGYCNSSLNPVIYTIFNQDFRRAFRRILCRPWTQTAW

Columns and labels:
[1] = target: human adrenergic-α2C receptor (Homo sapiens, UniProt P18825); assay: Radioligand binding experiment for α2C-adrenoceptor ([3H]-raulwolscine competition, CHO cell membranes); conditions: [3H]raulwolscine 1 nM, membranes of CHO cells transfected with human α2C receptor
Protocol: (§1) The interaction of the compounds of Formula (I) with α2C-adrenoceptor receptors was assessed in in vitro radioligand binding experiments. In general, a low concentration of a radioligand with a high binding affinity for a particular receptor or transporter is incubated with a sample of a tissue preparation enriched in a particular receptor or transporter or with a preparation of cells expressing cloned human receptors in a buffered medium. During the incubation, the radioligand binds to the receptor or transporter. When equilibrium of binding is reached, the receptor bound radioactivity is separated from the non-bound radioactivity, and the receptor- or transporter-bound activity is counted. The interaction of the test compounds with the receptor is assessed in competition binding experiments. Various concentrations of the test compound are added to the incubation mixture containing the receptor- or transporter preparation and the radioligand. The test compound in proportion to its binding affinity and its concentration inhibits binding of the radioligand. The radioligand used for […] receptor binding was [^3H]-raulwolscine.
(§2) CHO cells, stabile transfected with human adrenergic-α2A-, -α2B or α2C receptor cDNA, were cultured in Dulbecco's Modified Eagle's Medium (DMEM)/Nutrient mixture Ham's F12 (ratio 1:1)(Gibco, Gent-Belgium) supplemented with 10% heat inactivated fetal calf serum (Life Technologies, Merelbeke-Belgium) and antibiotics (100 IU/ml penicillin G, 100 μg/ml streptomycin sulphate, 110 μg/ml pyruvic acid and 100 μg/ml L-glutamine). One day before collection, cells were induced with 5 mM sodiumbutyrate. Upon 80-90% of confluence, cells were scraped in phosphate buffered saline without Ca^2+ and Mg^2+ and collected by centrifugation at 1500×g for 10 min. The cells were homogenised in Tris-HCl 50 mM using an Ultraturrax homogenizer and centrifuged for 10 min at 23,500×g. The pellet was washed once by resuspension and rehomogenization and the final pellet was resuspended in Tris-HCl, divided in 1 ml aliquots and stored at −70° C.
(§3) Membranes were thawed and re-homogenized in incubation buffer (glycylglycine 25 mM, pH 8.0). […] Filter-bound radioactivity was determined by scintillation counting in a Topcount (Packard, Meriden, CT) and results were expressed as counts per minute (cpm). Non-specific binding was determined in the presence of 1 μM oxymetazoline for hα2A- and hα2B receptors and 1 μM spiroxatrine for hα2C receptors.
(§4) Data from assays in the presence of compound were calculated as a percentage of total binding measured in the absence of test compound. […]

[2] = target: human adrenergic-α2A receptor (Homo sapiens, UniProt P08913); assay: Radioligand binding experiment for α2A-adrenoceptor ([3H]-raulwolscine competition, CHO cell membranes); conditions: [3H]raulwolscine 1 nM, membranes of CHO cells transfected with human α2A receptor
Protocol: as §1, §2, §3, §4

[3] = target: human adrenergic-α2B receptor (Homo sapiens, UniProt P18089); assay: Radioligand binding experiment for α2B-adrenoceptor ([3H]-raulwolscine competition, CHO cell membranes); conditions: [3H]raulwolscine 1 nM, membranes of CHO cells transfected with human α2B receptor
Protocol: as §1, with “[^3H]-raulwolscine. […]” for “[^3H]-raulwolscine.”
as §3, §4

Row | pIC50 α2C [1] | pIC50 α2A [2] | pIC50 α2B [3] | pIC50 α2C ([1]; tested form: HCl) | pIC50 α2A ([2]; tested form: HCl) | pIC50 α2B ([3]; tested form: HCl) | SMILES
1 | 6.1 | <5 |  |  |  |  | Cc1ccc(CN2CCC(Cn3ncn(-c4ccc(CN5CCOCC5)cc4)c3=O)CC2)o1
2 | 8.3 | 7.0 | 7.7 |  |  |  | CN1CCN(Cc2ccc(-n3cnn(CC4CCN(CCOc5ccccc5)CC4)c3=O)cc2)CC1
3 |  |  |  | 9.1 | 7.5 | 7.2 | O=c1n(-c2ccc(CN3CCCCC3)cc2)cnn1CCNCCOc1ccccc1
4 |  |  |  | 8.8 | 7.0 | 7.2 | CN1CCN(Cc2ccc(-n3cnn(CCNCCOc4ccccc4)c3=O)cc2)CC1
